Values quoted from earlier work in patent EP0623345A1, “New morphine formulations for use by iontophoretic adminstration” (dated 1994).

Legend:
[1] = iv bolus injection
[2] = after application of electric current, Ashburn et al

## morphine
[1]
  time after injection to maximum respiratory depression: at least 10 minutes
[2]
  time to clinically effective blood levels of morphine: 15 to 20 min
